Test results from PMC9325274, “In Vitro and In Silico Investigation of Diterpenoid Alkaloids Isolated from Delphinium chitralense” (Molecules, 2022).

The chains behind the UniProt entries cited, without tags or fusion partners. Residues count along the entry.
UniProt O42275, 24-633: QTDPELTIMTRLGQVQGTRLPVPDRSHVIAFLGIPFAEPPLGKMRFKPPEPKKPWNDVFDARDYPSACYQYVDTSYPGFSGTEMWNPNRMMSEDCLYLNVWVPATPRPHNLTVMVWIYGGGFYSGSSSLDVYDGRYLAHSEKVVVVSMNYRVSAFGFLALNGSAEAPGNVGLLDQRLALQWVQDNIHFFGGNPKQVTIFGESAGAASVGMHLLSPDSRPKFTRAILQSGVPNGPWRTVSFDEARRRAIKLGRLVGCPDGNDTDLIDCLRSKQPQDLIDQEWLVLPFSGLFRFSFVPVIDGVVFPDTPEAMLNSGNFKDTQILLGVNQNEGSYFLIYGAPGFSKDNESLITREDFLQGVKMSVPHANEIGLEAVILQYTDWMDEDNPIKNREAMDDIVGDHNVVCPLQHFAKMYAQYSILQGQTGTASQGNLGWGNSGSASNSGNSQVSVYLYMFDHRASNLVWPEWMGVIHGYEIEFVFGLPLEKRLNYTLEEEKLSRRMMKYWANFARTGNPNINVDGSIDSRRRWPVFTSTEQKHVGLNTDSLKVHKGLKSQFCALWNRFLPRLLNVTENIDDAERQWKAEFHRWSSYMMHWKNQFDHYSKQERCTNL
UniProt P81908, whole entry: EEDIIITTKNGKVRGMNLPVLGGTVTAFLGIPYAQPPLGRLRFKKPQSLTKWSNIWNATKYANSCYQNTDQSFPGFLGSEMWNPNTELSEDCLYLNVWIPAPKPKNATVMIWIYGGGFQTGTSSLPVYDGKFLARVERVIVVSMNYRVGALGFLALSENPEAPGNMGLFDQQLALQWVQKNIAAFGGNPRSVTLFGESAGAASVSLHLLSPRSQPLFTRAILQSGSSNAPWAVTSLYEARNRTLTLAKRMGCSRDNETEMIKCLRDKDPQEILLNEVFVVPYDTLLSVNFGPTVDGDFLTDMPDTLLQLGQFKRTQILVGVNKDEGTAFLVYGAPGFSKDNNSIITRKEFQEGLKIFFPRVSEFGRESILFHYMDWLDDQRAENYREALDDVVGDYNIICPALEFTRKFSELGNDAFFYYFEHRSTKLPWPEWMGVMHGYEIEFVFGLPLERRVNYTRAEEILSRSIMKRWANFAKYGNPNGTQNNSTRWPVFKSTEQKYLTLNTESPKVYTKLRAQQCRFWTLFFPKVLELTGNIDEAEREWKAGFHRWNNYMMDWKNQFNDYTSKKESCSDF

Columns and labels:
[1] = target: AChE (Electric-eel EC 3.1.1.7) (Electrophorus electricus, UniProt O42275); details: read-out: AChE ± SEM (IC50), SEM of five assays
[2] = target: BChE (horse serum EC 3.1.1.8) (Equus caballus, UniProt P81908); details: read-out: BChE ± SEM (IC50), SEM of five assays

In the case of Allanzanthane A [reference compound], the IC50 [1] is reported as 8.23 ± 0.01 µM and the IC50 [2] is reported as 18 ± 0.06 µM.
